uPA generation – inhibitors of cell surface uPA generation; Potency, µM (doses to about 38.3 µM), most hits filed as inhibitors; cell surface uPA generation assay, qHTS; AID 540303; 330,000 compounds, 0.31% hits; active means well fitted inhibition curve with a large enough effect; inconclusive means small, poorly fitted or top-dose-only effect; inactive means no such curve, though single readings can be large or run the other way; tested in mouse RAW 264.7 cells; further: nearly all actives have a fitted effect of over 55% in size
DT40 TDP1 CPT – growth inhibition of DT40 Tdp1-/-;hTDP1 cells with camptothecin (screen for TDP1 inhibitors) | chicken DT40 Tdp1-/-;hTDP1 cells + 20 nM CPT, ATP luminescence, 48 h | Potency, µM (series often up to 46.2 µM), most hits filed as inhibitors | 420,000 compounds, 12% hits | AID 686979; further: nearly all actives have a fitted effect of over 55% in size
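Chicken DT40 Tdp1-/- cells stably complemented with human TDP1 were seeded at 400 cells/well in medium containing 20 nM camptothecin, exposed to pin-transferred compounds, and grown at 37 °C for at least 48 hr. Viability was read as ATP luminescence.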
TDP1 inh – inhibitors of human tyrosyl-DNA phosphodiesterase TDP1. recombinant TDP1, AlphaScreen DNA substrate cleavage. 350,000 compounds, 0.28% hits. Q9NUW8. Potency, µM (top dose mostly 130 µM), usual class: inhibitors; further: nearly all actives have a fitted effect of over 40% in size
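Signal: AlphaScreen proximity between streptavidin donor and anti-FITC acceptor beads on intact substrate. Reaction: Tdp1 1 nM, substrate 15 nM final, 5 min RT after 15 min compound preincubation.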
TDP1 cell noCPT – qHTS for Inhibitors of human tyrosyl-DNA phosphodiesterase 1 (TDP1): qHTS in cells in absence of CPT | DT40 Tdp1-/- hTDP1 cells, no CPT, ATP luminescence, 48 h | Potency, µM (highest dose often 46.2 µM), usual class: inhibitors | 420,000 compounds, 15% hits | AID 686978, 2013; further: nearly all actives have a fitted effect of over 55% in size
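Chicken DT40 Tdp1-/- cells stably complemented with human TDP1 were seeded at 400 cells/well with DMSO in place of 20 nM camptothecin. After compound pinning, cells grew at least 48 hr at 37 °C; viability read by CellTiter-Glo luminescence.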
miR-21 reporter – raises the signal of a miR-21 reporter | Potency, µM (doses to about 38.3 µM) | HeLa miR-21 FLuc reporter, luciferase, 48 h | AID 2288 | 340,000 tested, under 10 active; active = well fitted rising curve with a large enough effect; inconclusive = small, poorly fitted or top-dose-only effect; inactive = no such curve, though single readings can be large or run the other way;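 also: miR-21 action dims this reporter so a rising signal means less miR-21 action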
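Luminescence from a firefly luciferase reporter carrying a miR-21 binding site downstream, stably expressed under a CMV promoter in HeLa cells that make miR-21 endogenously, reports miRNA modulation after 48 h compound exposure up to approximately 40uM final.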
Numbers stand for hits; – = inactive; ? = inconclusive; · = no result given; [ ] = remark or other dose. An excerpt weighted towards active compounds, which were near 16% of everything screened. Unless noted, the call rests on the fitted dose curve; in most records, active means well fitted curve in the direction sought with a large enough effect; inconclusive means small, poorly fitted or top-dose-only effect, or another doubt; inactive means no such curve, though single readings can be large; an effect the other way counts as inactive or inconclusive.

SMILES	uPA generation	DT40 TDP1 CPT	TDP1 inh	TDP1 cell noCPT	miR-21 reporter
Cn1c(Sc2ccc(Cl)cc2)c(C=O)c2ccccc21	–	?	–	21µM	–
Cc1cccc(NC(=O)CCS(=O)(=O)c2ccc3c(c2)oc(=O)n3C)c1	–	–	–	–	–
COc1ccccc1CN(C)CC(=O)Nc1ccc(Cl)cc1C(F)(F)F	–	21µM	–	15µM	–
COc1ccccc1CN(C)CC(=O)Nc1cccc2ccccc12	–	26µM	–	26µM	–
COc1cccc(CN(C)CC(=O)Nc2ccccc2C(C)C)c1	–	?	–	16µM	–
COc1ccc(NC(=O)CN(C)CC(=O)Nc2cccc3ccccc23)c(OC)c1	–	?	–	?	·
COCCCN1C(=O)C(CC(=O)NCCc2ccccn2)CC(C(=O)N(C(C)C)C(C)C)=C1C (stereo not drawn)	·	–	·	–	·
CCOc1ccc(Cl)cc1CNc1nnnn1CC	–	–	·	–	–
Cc1ccccc1-c1nc2c3ccccc3nc(=S)n2[nH]1	–	4.1µM	·	3.3µM	–
CCN(Cc1ccccc1)S(=O)(=O)c1ccccc1Br	–	?	–	?	·
CCCN(S(=O)(=O)c1ccccc1F)S(=O)(=O)c1ccccc1Br	–	?	89µM	?	–
CC(=O)Oc1c(C)c2c3c(c1OC(C)=O)[C@@H](C)CC[C@@H]3[C@@H](C)C[C@H]2C=C(C)C	–	?	–	?	·
COc1ccc(NC(=O)c2c(C)oc3ccc(O)c(CN4CCN(Cc5ccccc5)CC4)c23)cc1Cl	·	18µM	–	15µM	?
CCN1CCN(Cc2c(O)ccc3oc(C)c(C(=O)Nc4ccc(OC)c(Cl)c4)c23)CC1	·	23µM	–	?	–
CSc1ccc(CN2CCN(C(C)C)C(CCO)C2)cc1 (stereo not drawn)	–	–	·	–	–
c1ccc(N2CCN(c3nc4ccccc4n4cnnc34)CC2)cc1	–	?	–	?	–
c1ccc2c(c1)CCN(c1nc3ccccc3n3cnnc13)C2	–	23µM	–	?	–
C1=C(c2ccccc2)CCN(c2nc3ccccc3n3cnnc23)C1	–	?	–	16µM	–
c1ccc2c(c1)CCCN2c1nc2ccccc2n2cnnc12	–	?	–	?	–
c1ccc(CN2CCN(c3nc4ccccc4n4cnnc34)CC2)cc1	–	13µM	–	?	–
c1ccc(CN2CCN(c3nc4ccccc4c4ccccc34)CC2)cc1	–	21µM	–	?	–
CCc1ccc(S(=O)(=O)NCCc2cn3ccsc3n2)cc1	·	–	–	?	–
Cc1ccc(-n2c3nc(=O)n(C)c(=O)c-3cc3ccccc32)c(C)c1	·	–	–	–	–
C[C@@H](N)CCCP(=O)(O)O	·	–	–	–	·
Cc1cc(C)n(-c2nc3ccccc3nc2Nc2cccc(C(F)(F)F)c2)n1	·	·	–	·	–
SMILES	uPA generation	DT40 TDP1 CPT	TDP1 inh	TDP1 cell noCPT	miR-21 reporter
FC(F)(F)c1cccc(N2CCN(c3nc4ccccc4n4cnnc34)CC2)c1	·	?	–	23µM	–
Cc1cc(C)n(-c2nc3ccccc3nc2N2CCN(c3cccc(C(F)(F)F)c3)CC2)n1	·	18µM	–[12.3 µM]	?	–
Cc1cc(C)n(-c2nc3ccccc3n3cnnc23)n1	·	–	–	–	–
CSc1nnc(-c2ccco2)n1-c1ccccc1	–	18µM	–	?	–
CC(=O)CSc1nnc(-c2ccco2)n1-c1ccccc1	?	–	·	–	–
COc1cccc(OC)c1C(=O)Nc1ccncc1	–	–	·	–	·
Nc1nnc(SCCCC(=O)c2ccc(F)cc2)s1	–	?	–	?	–
O=C(CCCSc1nnc(SCCCC(=O)c2ccc(F)cc2)s1)c1ccc(F)cc1	–	18µM	–	?	–
O=S(=O)(/C(=C\c1ccc(C(F)(F)F)cc1)c1nc2ccccc2[nH]1)c1ccccc1	–	2.1µM	·	2.1µM	·
CCO[C@@H]1O[C@H](C(COCc2ccccc2)OCc2ccccc2)[C@H](OCc2ccccc2)[C@H]1O (stereo partly drawn)	·	11µM	·	?	·
COC(C[C@H]1O[C@@H]1[C@H](O)COCc1ccccc1)OC	–	–	–	–	–
CCCCNC(=O)c1ccccc1Cl	–	–	–	–	–
CCCCNC(=O)c1ccccc1C(=O)NCCCC	–	29µM	–	29µM	–
CCCCCCCCCCCNC(=O)c1ccoc1C	–	21µM	–	18µM	–
Cc1occc1C(=O)NCCCCNC(=O)c1ccoc1C	–	–	–	–	–
CCc1ccc(NC(=O)c2sc3nc(C)c(C(=O)Nc4ccc(C)cc4C)c(-c4ccco4)c3c2N)cc1	·	–	–	–	–
Cc1ccc(NC(=O)c2c(C)nc3sc(C(=O)NC4CCCC4)c(N)c3c2-c2ccco2)c(C)c1	–	2.9µM	–	5.2µM	–
COc1cc(C2C(C#N)=C(N)N(N(C)C)C3=C2C(=O)CCC3)cc(OC)c1OC (stereo not drawn)	–	–	·	–	–
Cc1ccccc1C1C(C#N)=C2N=C(N)c3c(sc4c3CCCCC4)N2C2=C1C(=O)CC(C)(C)C2 (stereo not drawn)	–	18µM	–	?	–
Cc1ccccc1C1C(C#N)=C2NC(=O)c3c(sc4c3CCCCC4)N2C2=C1C(=O)CC(C)(C)C2 (stereo not drawn)	·	·	–	·	–
COc1cc(C2C(C#N)=C(N)N(c3sc4c(c3C#N)CCCC4)C3=C2C(=O)CC(C)(C)C3)cc(OC)c1OC (stereo not drawn)	–	21µM	–	16µM	–
CNC(=S)N/N=C1\CC(c2ccccc2)Oc2ccccc21 (stereo not drawn)	·	5.2µM	–	2.6µM	–
Fc1ccc(N/N=C2/CC(c3ccccc3)Oc3ccccc32)c(F)c1 (stereo not drawn)	–	–	–	–	–
Cn1c(=O)c2c(ncn2Cc2ccccc2)n(C)c1=O	–	?	–	–	–
Cn1c(Cl)nc2c1c(=O)n(Cc1cccc(Br)c1)c(=O)n2C	·	?	–	?	–
SMILES	uPA generation	DT40 TDP1 CPT	TDP1 inh	TDP1 cell noCPT	miR-21 reporter
Cn1c(=O)c2c(nc(NCCNC(=O)c3ccco3)n2Cc2ccccc2)n(C)c1=O	–	?	–	?	–
COc1cccc(Cn2cnc3c2c(=O)n(C)c(=O)n3C)c1	·	12µM	–	12µM	–
CC(O)CNc1nc2c(c(=O)n(C)c(=O)n2C)n1Cc1cccc(Br)c1 (stereo not drawn)	–	?	–	14µM	–
COCCNc1nc2c(c(=O)n(C)c(=O)n2C)n1Cc1cccc(C(F)(F)F)c1	–	3.3µM	–	3.7µM	–
CC(C)CNc1nc2c(c(=O)n(C)c(=O)n2C)n1Cc1cccc(Br)c1	–	21µM	–	23µM	–
Cn1c2ccccc2c2nnc(SC3CCOC3=O)nc21 (stereo not drawn)	–	–	–	–	–
COc1cccc(OCc2cc(C(=O)NCc3ccc4c(c3)OCO4)no2)c1	–	?	–	?	–
